The values that follow come from patent US20150118229A1, “JAK1 SELECTIVE INHIBITOR AND USES THEREOF” (ABBVIE INC., priority 2013, published 2015).

A short description of data set [1]: Human PK, multiple ascending dose Study M13-845 Substudy 1. To be noted: in vivo, oral.
A further data set can be described thus: clinical. To be noted: human, plasma, oral.

Regarding `CC[C@@H]1CN(C(=O)NCC(F)(F)F)C[C@@H]1c1cnc2cnc3[nH]ccc3n12` [Compound 1, (3S,4R)-3-ethyl-4-(3H-imidazo[1,2-a]pyrrolo[2,3-e]pyrazin-8-yl)-N-(2,2,2-trifluoroethyl)pyrrolidine-1-carboxamide], the half-life in data set [1] (12 mg BID, Day 14, harmonic mean (pseudo % CV), Western subjects, read-out: t1/2 (converted)) is 7.59 h; in data set [1] (24 mg BID, Day 14, harmonic mean (pseudo % CV), Western subjects, read-out: t1/2 (converted)) it was 8.01 h; in data set [1] (following the last dose on Day 14, read-out: t½ of elimination phase), 8 to 16 h; in “clinical” (3 mg, t1/2, Japanese, single dose 3 mg, harmonic mean (pseudo % CV), not a robust estimate), 6.1 h; in “clinical” (18 mg, t1/2, Chinese, 18 mg BID, Day 14, harmonic mean (pseudo % CV)), 6.88 h; in the data set “clinical” (24 mg, t1/2, Japanese, single dose 24 mg, harmonic mean (pseudo % CV)) it was 14 h.
